Target: recombinant human PAI-1 (Homo sapiens, UniProt P05121)
Assay: Test Example 2: Human PAI-1 Inhibitory Activity (pH 7.4 HEPES buffer, 10 minutes incubation with two-chain tPA)
Format: biochemical
Conditions: Compound Concentration 0.1µM; tested form: free acid

Amino acid sequences for entries named in this document (tags omitted). Residues count along the entry.
UniProt P05121, 24-402 limits assumed: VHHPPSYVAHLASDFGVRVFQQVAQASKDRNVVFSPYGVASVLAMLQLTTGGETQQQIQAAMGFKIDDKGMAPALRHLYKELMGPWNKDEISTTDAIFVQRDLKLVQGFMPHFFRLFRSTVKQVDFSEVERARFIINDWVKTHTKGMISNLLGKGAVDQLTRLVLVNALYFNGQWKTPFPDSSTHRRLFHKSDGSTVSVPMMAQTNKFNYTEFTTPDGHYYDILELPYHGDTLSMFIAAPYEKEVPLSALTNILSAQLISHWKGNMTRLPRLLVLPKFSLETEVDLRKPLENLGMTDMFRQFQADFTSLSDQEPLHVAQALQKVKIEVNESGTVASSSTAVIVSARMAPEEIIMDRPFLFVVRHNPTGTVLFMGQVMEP

Inhibition Rate of PAI-1 Activity (%): 0%
Structure (SMILES): CCC(CC)Oc1ccc(-c2ccc(OC(F)(F)F)cc2)cc1N(CCCc1ccccc1)C(=O)C(=O)O
